Biological target: T1, apo-transferrin (human, UniProt P02787 20-698)
T1 construct: transferrin (serotransferrin), human, iron-free state; Several paragraphs and legends say only 'transferrin' where the text says apo-transferrin for the same panels; rows told of 'transferrin' alone are tied to this molecule; also called Tf; TRF; source: bought: Sigma (purity greater than 98%)
Assay: SPR; BIAcore 2000; apo-transferrin or holo-transferrin immobilised on a CM5 chip (~2000 RU); serial concentrations of thrombin, FXIIa, fibrinogen, AT, prothrombin or FXII in Tris–HCl buffer (20 mM, pH 7.4) at 10 μL/min

Work on “human α-thrombin (from UniProt P00734 364-622) (enzyme)” yielded a koff of 0.0036 s⁻¹ and a kon of 470000 M⁻¹ s⁻¹.

From publication PMC7015052, “Transferrin plays a central role in coagulation balance by interacting with clotting factors” (Cell Research, 2019)
